# Article PMC10597491, “A mechanistically novel peptide agonist of the IL-7 receptor that addresses limitations of IL-7 cytokine therapy” (PLOS ONE, 2023)
# Biological target: T1, IL-7R (Homo sapiens, UniProt P16871+P31785)
# T1 construct: constructed to express full-length human IL-7Rα in TF-1 cells; TF-1 cells, which naturally express γc, but not IL-7Rα; expressed in transfected cells
# T1 sequence (P16871 21-459): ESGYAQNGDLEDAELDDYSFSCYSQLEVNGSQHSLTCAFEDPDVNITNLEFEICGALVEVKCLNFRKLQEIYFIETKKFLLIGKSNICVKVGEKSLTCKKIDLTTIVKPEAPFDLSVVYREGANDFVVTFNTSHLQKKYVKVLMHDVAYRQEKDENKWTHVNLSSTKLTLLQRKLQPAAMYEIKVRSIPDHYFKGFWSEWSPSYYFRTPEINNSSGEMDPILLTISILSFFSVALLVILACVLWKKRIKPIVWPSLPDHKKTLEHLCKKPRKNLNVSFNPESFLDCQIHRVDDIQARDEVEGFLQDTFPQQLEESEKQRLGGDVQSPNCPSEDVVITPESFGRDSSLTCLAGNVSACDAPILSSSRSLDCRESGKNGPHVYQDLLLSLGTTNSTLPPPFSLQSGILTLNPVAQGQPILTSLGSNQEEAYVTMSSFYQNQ
# T1 sequence (P31785 23-369): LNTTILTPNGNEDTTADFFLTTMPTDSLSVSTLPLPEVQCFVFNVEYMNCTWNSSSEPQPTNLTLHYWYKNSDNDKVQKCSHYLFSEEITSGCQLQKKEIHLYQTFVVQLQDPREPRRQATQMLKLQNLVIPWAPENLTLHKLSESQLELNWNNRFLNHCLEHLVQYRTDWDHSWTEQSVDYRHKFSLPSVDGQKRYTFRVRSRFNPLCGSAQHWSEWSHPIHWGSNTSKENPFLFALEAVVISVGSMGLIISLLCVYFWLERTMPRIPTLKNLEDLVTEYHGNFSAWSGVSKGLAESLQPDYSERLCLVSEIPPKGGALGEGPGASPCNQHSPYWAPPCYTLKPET
# Test: STAT5 phosphorylation in TF1-7Rα cells
# Type: cell-based
# Method: The synthetic peptide MDK1472 was designed to bind simultaneously to IL-7Rα and γc subunits and was tested for its ability to induce phosphorylation of STAT5, the primary IL-7R signaling pathway. An IL-7 responsive cell line, TF1-7Rα was constructed to express full-length human IL-7Rα in TF-1 cells, which naturally express γc, but not IL-7Rα.
# Fig 3 IL-7Rα dependence of agonist activity induced by MDK1472 and MDK-703 in TF-1 and TF1-7Rα cells. Compound-induced STAT5 phosphorylation in (A) TF-1 (γc+) and (B) TF1-7Rα (IL-7Rαγc+) cells. (C) pSTAT5 accumulation in TF1-7Rα cells treated with IL-7 or MDK-703 in the presence of an IL-7 neutralizing antibody. Cells were pre-incubated for 15 min with 1 pM to 30 nM anti-IL-7, and test compounds were then added at concentrations equivalent to EC75 and incubated for an additional 30 min. Reactions were stopped and cell lysates prepared for pSTAT5 analysis.
# Cells were deprived of growth factors by overnight incubation at 5×10^5 cells/mL in starvation medium (RPMI 1640 + 4.5 g/L glucose + 0.2% FBS + 2 mM L-glutamine + 1 mM NaPyr + 10 mM HEPES + 0.5x penicillin-streptomycin with no cytokine supplement) in T75 flasks. For assays, cells were plated in 96-well V-bottom plates at 2×10^5 cells/well. Three-fold serial dilutions in starvation medium of the test compounds or cytokine were added to the cells and incubated for 30 min at 37°C. […]
substance,measurement,setting,value
IL-7: human IL-7 cytokine (Peprotech),effect of IL-7 neutralizing antibody on pSTAT5 stimulation,"TF1-7Rα cells, 15 min pre-incubation with 1 pM to 30 nM anti-IL-7, compound at EC75, 30 min",completely inhibits
same,dependence of agonist activity on IL-7Rα expression,TF-1 parental (γc+) versus TF1-7Rα cells,completely dependent on IL-7Rα expression
